# The supplement of paper PMC9334596
# This list holds what a sample rich in highest values left over.
# System: mPer2Luc MEF
# Experiment: PER2::LUC luminescence relative to vehicle control (fold of vehicle); higher = higher PER2::LUC reporter signal
# Conditions: 10 µM
# How it was run: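 In 384-well plates, ~3000 mPer2Luc reporter mouse embryonic fibroblasts per well were cultured in DMEM with 10% FBS at 37 °C and 5% CO2 for 48 h before compounds from commercial libraries were added at 10 μM. ONE-Glo luciferase readings were taken 24 h and 30 h after treatment. Each value is PER2::LUC luminescence given as fold of vehicle control.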
smiles,measurement,setting,value
CC[C@H](C)[C@H](NC(=O)[C@H](CCC(=O)O)NC(=O)C(CCC(=O)O)NC(=O)[C@H](Cc1ccccc1)NC(=O)C(CC(=O)O)NC(=O)CNC(=O)C(CC(N)=O)NC(=O)CNC(=O)CNC(=O)CNC(=O)CNC(=O)[C@@H]1CCCN1C(=O)[C@H](CCCNC(=N)N)NC(=O)[C@@H]1CCCN1C(=O)[C@@H](N)Cc1ccccc1)C(=O)N1CCC[C@H]1C(=O)N[C@@H](CCC(=O)O)C(=O)N[C@@H](CCC(=O)O)C(=O)N[C@@H](Cc1ccc(O)cc1)C(=O)N[C@@H](CC(C)C)C(=O)O (some centres not stated),PER2::LUC luminescence,time after treatment 24 h,1.03
same,PER2::LUC luminescence,time after treatment 30 h,0.923
